## Binding of CDR-mutated scFvs to a peptide of the spike HR2 region

From the AlphaSeq antibody data of Engelhart et al. 2022 (doi:10.1038/s41597-022-01779-4), copy in the FLAb collection.

Target peptide (SARS-CoV-2 spike, HR2 region): PDVDLGDISGINAS

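Library AAYL52 holds single substitutions and randomly drawn double and triple substitutions in the CDRs. AlphaSeq pools MATa yeast showing the antibodies with MATalpha yeast showing the peptide. Mating (16 h, 30 °C) was followed by selection of diploids and sequencing of their barcodes. Each replicate has its own calibration line, from reference interactions of the BCL2 family. There are three technical replicates.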

Ab-95 is the parent antibody, in scFv form: VH, then a 15-residue (Gly4Ser)3 linker, then VL. The heavy chain is unchanged in all variants.
VH: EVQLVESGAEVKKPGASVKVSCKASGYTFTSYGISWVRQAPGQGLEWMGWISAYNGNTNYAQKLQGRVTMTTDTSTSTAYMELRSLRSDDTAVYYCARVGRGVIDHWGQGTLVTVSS
VL: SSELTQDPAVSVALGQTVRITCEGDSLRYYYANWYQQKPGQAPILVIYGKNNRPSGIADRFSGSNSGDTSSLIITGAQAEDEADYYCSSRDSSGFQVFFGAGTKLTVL

Substitutions are numbered in sequence along the VL above, starting at 1 (not Kabat). Every variant below is changed at S89 of the VL (sequential numbering). Each Kd is an estimate from the mating assay, the geometric mean of the replicates in which the pair was seen; lower is stronger. A pair that was not seen in any replicate is written "nd"; this usually means weak binding, but a binder can also be missed. The list is sorted by this average, lowest first, undetected variants last.

changes,Kd,replicates with signal,control signals
Y30K+S55E+S89V,3.9 nM,3 of 3,4 of 9
N51G+S88A+S89W,37 nM,3 of 3,0 of 9
Y30M+P54Y+S89C,58 nM,3 of 3,2 of 9
S89W,130 nM,3 of 3,3 of 9
S89E+R90T+G94T,130 nM,3 of 3,2 of 9
Y30W+S89L,160 nM,3 of 3,3 of 9
S55V+S89I+S93E,220 nM,3 of 3,5 of 9
S89P+S93F+V97F,290 nM,3 of 3,2 of 9
K50H+S88W+S89V,340 nM,2 of 3,4 of 9
E23P+Y31H+S89T,340 nM,3 of 3,5 of 9
S89V+F95P,370 nM,3 of 3,3 of 9
S89I+Q96N,380 nM,3 of 3,1 of 9
L27Q+S89Q,400 nM,2 of 3,0 of 9
K50Q+S88F+S89A,430 nM,3 of 3,4 of 9
Y29P+K50W+S89C,720 nM,3 of 3,5 of 9
S26D+R53W+S89A,890 nM,1 of 3,1 of 9
S89W+S93L+Q96D,920 nM,3 of 3,2 of 9
R53V+S55C+S89L,970 nM,1 of 3,0 of 9
R28N+R53T+S89G,1.3 µM,2 of 3,0 of 9
S89D+S92A+V97K,1.8 µM,1 of 3,2 of 9
L27I+S89N+Q96T,1.9 µM,3 of 3,4 of 9
Y31I+G49Y+S89T,2.5 µM,1 of 3,1 of 9
R53C+S89P+F95T,4.0 µM,1 of 3,1 of 9
E23A+S26E+S89D,4.0 µM,3 of 3,5 of 9
Y31R+P54T+S89R,4.1 µM,1 of 3,3 of 9
D25I+S88G+S89H,4.3 µM,1 of 3,1 of 9
D25Q+S55M+S89Q,4.9 µM,1 of 3,2 of 9
S88Y+S89N+S93V,5.6 µM,2 of 3,2 of 9
S89V+S93H+F95Q,5.7 µM,1 of 3,3 of 9
G49H+S89T+F98Y,6.3 µM,3 of 3,2 of 9
S89W+R90G+S93K,8.5 µM,1 of 3,4 of 9
Y29D+G49P+S89Y,8.6 µM,2 of 3,3 of 9
Y31D+S89Q+F95T,8.8 µM,2 of 3,0 of 9
S89F+V97H+F98Y,9.7 µM,2 of 3,6 of 9
A32W+S89V,9.7 µM,1 of 3,2 of 9
N51Y+S88F+S89Q,10 µM,3 of 3,2 of 9
A32T+S89M+S92M,10 µM,2 of 3,0 of 9
G49Q+S89Q+S92L,15 µM,3 of 3,0 of 9
G24T+S89D+S92F,17 µM,1 of 3,1 of 9
S89H+R90W+S92A,19 µM,2 of 3,6 of 9
L27Q+N52P+S89V,19 µM,1 of 3,4 of 9
S89N+G94N+F98H,23 µM,2 of 3,2 of 9
D25Y+Y29L+S89E,23 µM,2 of 3,1 of 9
S89V+D91F+V97Q,32 µM,1 of 3,2 of 9
P54Y+S89H+F95T,41 µM,2 of 3,2 of 9
N33Q+S89A+G94S,150 µM,3 of 3,6 of 9
N33H+S89G+D91Q,210 µM,1 of 3,5 of 9
S89D+S93W,250 µM,2 of 3,2 of 9
R28P+Y31A+S89P,260 µM,1 of 3,2 of 9
N52W+S89D+D91A,260 µM,1 of 3,1 of 9
N51L+S89M,270 µM,2 of 3,4 of 9
Y29E+R53D+S89H,1.1 mM,1 of 3,1 of 9
G49Y+S89C+D91W,nd,0 of 3,2 of 9
N52Q+S89Q+V97P,nd,0 of 3,3 of 9
S89C+R90M+G94D,nd,0 of 3,0 of 9
G24W+N52Y+S89R,nd,0 of 3,1 of 9
Y29H+S89A+G94A,nd,0 of 3,0 of 9
E23F+S89P+D91R,nd,0 of 3,3 of 9
N33M+S88R+S89P,nd,0 of 3,2 of 9
N33Q+S89D+G94V,nd,0 of 3,1 of 9

For reference, 7 entries of the list once more:

changes,Kd,replicates with signal,control signals
N33M+S88R+S89P,nd,0 of 3,2 of 9
Y31I+G49Y+S89T,2.5 µM,1 of 3,1 of 9
D25I+S88G+S89H,4.3 µM,1 of 3,1 of 9
N33Q+S89A+G94S,150 µM,3 of 3,6 of 9
Y29H+S89A+G94A,nd,0 of 3,0 of 9
S89V+F95P,370 nM,3 of 3,3 of 9
S89W+S93L+Q96D,920 nM,3 of 3,2 of 9

Background: pairings of library AAYL52 with three empty control strains gave a value in 28% of cases (median 8.2 µM, 5th percentile 800 nM). Values in that range, when seen in few replicates, are hard to tell from nonspecific mating. Also given: how often the same scFv was detected with the empty control strains.